Reference: patent EP0934300B1, “THE PREPARATION AND USE OF ORTHO-S[…] AS MATRIX METALLOPROTEINASE AND TACE INHIBITORS” (American Cyanamid Company, priority 1996, dated 1998)

Target: T1, MMP-1 (Homo sapiens, UniProt P03956)
T1 sequence (P03956 100-469): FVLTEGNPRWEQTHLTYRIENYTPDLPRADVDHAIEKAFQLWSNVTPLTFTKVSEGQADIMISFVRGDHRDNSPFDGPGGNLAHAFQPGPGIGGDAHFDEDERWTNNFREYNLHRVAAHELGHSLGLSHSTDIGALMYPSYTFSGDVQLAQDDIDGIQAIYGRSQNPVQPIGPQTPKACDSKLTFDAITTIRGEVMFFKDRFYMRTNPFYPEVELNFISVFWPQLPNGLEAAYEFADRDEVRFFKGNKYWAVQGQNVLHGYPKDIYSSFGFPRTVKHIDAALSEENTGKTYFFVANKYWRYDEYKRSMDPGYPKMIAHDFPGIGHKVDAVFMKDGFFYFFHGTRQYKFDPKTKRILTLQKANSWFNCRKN
Assay: MMP-1 inhibition (thiopeptide or fluorescent peptide substrate assay)
Type: biochemical

Work on COc1ccc(S(=O)(=O)N(Cc2ccccc2)c2c(C(=O)NO)cc(OC)nc2OC)cc1 [Example 33, 3-[Benzyl-(4-methoxy-benzenesulfonyl)-amino]-N-hydroxy-2,6-dimethoxyisonicotinamide] yielded an IC50 of 1.23 µM.
